Data reported in US9458184B2, “Compositions of TLR7 and/or TLR8 agonists conjugated to lipids” (CAYLA, priority 2012, dated 2016).

The chains behind the UniProt entries cited, without tags or fusion partners. Residues count along the entry.
UniProt Q9NYK1, 27-1049 limits assumed: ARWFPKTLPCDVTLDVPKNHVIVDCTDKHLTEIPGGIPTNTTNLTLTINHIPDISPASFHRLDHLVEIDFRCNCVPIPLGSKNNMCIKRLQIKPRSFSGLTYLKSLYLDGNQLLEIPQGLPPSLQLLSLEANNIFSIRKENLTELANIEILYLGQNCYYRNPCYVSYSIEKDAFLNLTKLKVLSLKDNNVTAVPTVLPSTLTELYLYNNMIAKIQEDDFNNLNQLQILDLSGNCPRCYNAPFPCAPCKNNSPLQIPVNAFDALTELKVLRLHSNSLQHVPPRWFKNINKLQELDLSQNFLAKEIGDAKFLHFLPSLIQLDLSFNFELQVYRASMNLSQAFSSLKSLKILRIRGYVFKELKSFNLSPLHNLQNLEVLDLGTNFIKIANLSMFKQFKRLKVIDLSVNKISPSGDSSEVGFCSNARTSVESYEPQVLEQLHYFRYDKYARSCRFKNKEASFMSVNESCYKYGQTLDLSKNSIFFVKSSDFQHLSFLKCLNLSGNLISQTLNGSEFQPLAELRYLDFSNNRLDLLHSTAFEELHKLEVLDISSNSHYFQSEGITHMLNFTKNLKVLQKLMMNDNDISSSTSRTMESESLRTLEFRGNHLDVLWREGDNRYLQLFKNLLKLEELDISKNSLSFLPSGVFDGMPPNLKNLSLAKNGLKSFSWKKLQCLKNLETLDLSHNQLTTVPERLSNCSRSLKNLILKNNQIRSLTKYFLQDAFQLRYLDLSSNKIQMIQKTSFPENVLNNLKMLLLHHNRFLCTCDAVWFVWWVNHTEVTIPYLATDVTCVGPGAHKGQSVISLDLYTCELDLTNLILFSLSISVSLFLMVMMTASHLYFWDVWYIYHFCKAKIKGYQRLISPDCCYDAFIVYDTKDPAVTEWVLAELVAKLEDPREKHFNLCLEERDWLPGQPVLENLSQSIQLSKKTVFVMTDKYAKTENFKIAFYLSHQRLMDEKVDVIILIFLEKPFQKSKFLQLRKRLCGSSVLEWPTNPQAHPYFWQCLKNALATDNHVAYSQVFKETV

Target: human TLR7 (Homo sapiens, UniProt Q9NYK1)
Assay: HEK-Blue hTLR7 NF-κB/AP-1 SEAP reporter cell assay
Details: molecules alone, 1 or 10 μg/ml, 24 h, HEK-Blue TLR7 cells (FIG. 1A: hTLR7 and mTLR7); specificity checked against other TLR reporter lines

di(Z)-octadec-9-enyl 1-(4-((6-amino-2-(butylamino)-8-hydroxy-9H-purin-9-yl)methyl) phenyl)-1,4-dioxo-2,5,9,14,18-pentaazahenicosan-21-ylphosphonate
TLR7 activity (NF-κB/AP-1-inducible SEAP reporter): strong and specific TLR7 activity

Only a part of the results on these compounds is given; other tests are left out.
